Screening results from PubChem BioAssay.
MITF act: activators of MITF-driven TRPM1 promoter reporter, primary screen, cell-based, SK-MEL-5, luciferase, single point; activation, % at 12.5 µM; hit rate 0.75% among 300,000; SK-MEL-5 TRPM1-promoter luciferase, 24 h; % of positive control, neutral wells = 0;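 active means mean activation of at least 80% with every replicate also reaching 80%; inconclusive means mean reaches 80% but some replicate falls short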;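 further: 0% = neutral control wells and 100% = parthenolide positive control wells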
esBAF inh: Bmi1 luciferase reporter increase in mESCs, primary screen, esBAF inhibitor project, mouse ES cells, Bmi1 luciferase knock-in, single point. hit rate 2% among 350,000. AID 602393, 2012. 24 h; 100% = twice the neutral-well signal. reporter increase, % at 12.5 µM; in the data active means activation above about 40%; inconclusive means no clear call, values can overlap the other calls;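 further: 0% = median of the plate's neutral control wells and 100% = double that signal; a rise in the Bmi1 reporter signal indicates esBAF inhibition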
Wnt act: Wnt/beta-catenin pathway activators, primary screen, cell-based, plate reader, single point | activation, % at 9.35 µM | hit rate 1.2% among 300,000 | Wnt/beta-catenin reporter cell assay, activator; in the data active means activation above about 30%, passing the limit was not always enough; inconclusive means no clear call, values can overlap the other calls;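 further: 0% = neutral control wells and 100% = positive control wells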
PglD inh: C. jejuni PglD acetyltransferase inhibitors, primary screen, biochemical, DTNB colorimetric, single point | purified PglD enzyme, DTNB colorimetric CoA detection | inhibition, % at 12.5 µM | hit rate 0.098% among 360,000; in the data active means inhibition above about 16%, passing the limit was not always enough; inconclusive means no clear call, values can overlap the other calls
Yeast UUG start: modulators of start codon recognition fidelity in yeast | S. cerevisiae UUG-firefly luciferase reporter, luminescence/redox ratio | activity score, % at 18.7 µM | 350,000 tested, 0.13% active;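 active = replicate mean at a twofold rise or more, about +100% in these data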;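 also: firefly luciferase made from a UUG start codon reports start codon fidelity; reporter light over untreated wells divided by growth signal over untreated wells; some hits fall short of that in this replicate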
miR-122 sensor: miR-122 Renilla sensor signal increase in Huh7, primary screen, miR-122 inhibitor project, cell-based, single point, plate reader | Huh7 miR-122 Renilla luciferase sensor, 48 h; neutral wells = 0, positive control = 100 | hit rate 0.3% among 340,000 | activation (reporter increase), % at 12.5 µM;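 active means mean replicate activation score at least 90 and every replicate individually at or above 90; inconclusive means only one of the two criteria met; inactive means neither criterion met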;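 further: higher luciferase means less miR-122 activity so hits act as miR-122 inhibitors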
Ring1 derepress: Ring1 mRNA increase in mouse ESCs, confirmation, esBAF inhibitor project, cell-based, mouse ESC, RT-qPCR, cherry-pick; shares compounds with esBAF inh; AID 743176, 2013; mouse ESC E14, Ring1 mRNA RT-qPCR fold change; fold change at 33 µM; 550 tested, under 10 active;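 active means Ring1 gene expression raised more than 2-fold over untreated cells in both replicates at either tested dose; inconclusive means only one replicate above 2-fold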;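 further: Ring1 transcript normalised to actin housekeeping signal by TaqMan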
Fgf4 repress: Fgf4 mRNA decrease in mouse ESCs, confirmation, esBAF inhibitor project, cell-based, mouse ESC, RT-qPCR, cherry-pick. Fgf4 expression fold change at 33 µM. mouse ESC E14, Fgf4 mRNA qPCR fold change; hits give low values. hit rate 4% among 550. shares compounds with esBAF inh;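 active means Fgf4 expression under 0.8 fold of control in both repeat measurements at one or both tested doses; inconclusive means under 0.8 fold in just a single repeat measurement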;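 further: Fgf4 transcript normalised to actin in duplex TaqMan qPCR; cells exposed to compound for 24 h before lysis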
Bmi1 derepress: esBAF inhibition via Bmi1 de-repression, confirmation, cell-based, RT-qPCR, mouse ESC, single point, cherry-pick | mouse ESE14 ES cells, Bmi1 mRNA qPCR fold; hits give high values | fold change at 33 µM | shares compounds with esBAF inh | 550 tested, under 10 active;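 active means Bmi1 expression fold change above 6 at either tested concentration, seen in replicate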;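 further: higher fold means more Bmi1 de-repression and stronger esBAF inhibition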
A549 tox SP: A549 cell cytotoxicity, cytotoxicity control, plate reader, single point, cherry-pick | cell viability change % (negative = cytotoxic), % at 25 µM, hits read low | 550 tested, under 10 active | shares compounds with esBAF inh; call rule not given here
HepG2 tox SP: HepG2 cell cytotoxicity, cytotoxicity control, plate reader, single point, cherry-pick; shares compounds with esBAF inh; hits give low values; activity change, negative = inhibition, % at 25 µM; hit rate 4% among 550; AID 743189, 2013; in the data active means activity change below about -50%
HEK293 cytotox SP: HEK293 cell cytotoxicity, cytotoxicity control, plate reader, single point, cherry-pick. shares compounds with esBAF inh. activity change, negative = inhibition, % at 25 µM, hits read low. hit rate 3% among 550; in the data active means activity change below about -38%, passing the limit was not always enough
* marks the source's active call; other numbers are inactive results; u = inconclusive; x = no result; [ ] = dose if it differs, or a comment. Rows were chosen to be rich in hits. Some 2.8% of all compounds tested hit in one or more screens of this group.

SMILES	miR-122 sensor	Yeast UUG start	MITF act	esBAF inh	A549 tox SP	Wnt act	Ring1 derepress	HepG2 tox SP	Bmi1 derepress	HEK293 cytotox SP	PglD inh	Fgf4 repress
Cc1ccccc1-c1nnc(-c2cccc3ccccc23)o1	-6	-7	27	71*	-7	55*	0.95	37	1.7	-16	-4	0.96
C[C@@H]1CN([C@@H](C)CO)C(=O)c2cc(NS(=O)(=O)c3ccc(Cl)cc3)ccc2O[C@@H](C)CCCCO[C@H]1CN(C)C	-2[16.7 µM]	-2	x	-1	x	x	x	x	x	x	1	x
COc1ccc(NC(=O)c2ccc3ccccc3c2OC)cc1	4	-8	x	75*	0	-1	1.1	-33	2.3	-6	4	0.93
O=C(Nc1ccc2ccccc2c1)c1cccc2ccccc12	0	-4	32	77*	-9	-3	1.1	22	1.8	-11	1	0.95
COc1ccc(NC(=O)c2cc3ccccc3cc2OC)cc1	13	-14	63	28	x	23	x	x	x	x	4	x
CCC(=O)N1C[C@@H](O)COC[C@H]2O[C@H](CC(=O)NCc3cc(F)cc(F)c3)CC[C@@H]21	9[16.7 µM]	x	x	6	x	x	x	x	x	x	6	x
C[C@@H]1CCCCO[C@@H](CN(C)C(=O)NC2CCCCC2)[C@H](C)CN([C@@H](C)CO)C(=O)c2cc(NC(=O)Cc3ccccc3)ccc2O1	-9[16.7 µM]	0	x	20	x	x	x	x	x	x	2	x
O=C(C[C@H]1C=C[C@@H](NC(=O)Nc2ccc(F)cc2)[C@H](CO)O1)NCCN1CCCC1	-4[16.7 µM]	4	x	4	x	x	x	x	x	x	1	x
C[C@@H]1CCCCO[C@H](CN(C)S(=O)(=O)c2ccccc2)[C@H](C)CN([C@H](C)CO)C(=O)c2cc(NC(=O)C3CCCCC3)ccc2O1	-8[16.7 µM]	16	x	-4	x	x	x	x	x	x	0	x
C[C@@H]1CN([C@@H](C)CO)C(=O)c2cc(NC(=O)CCCN(C)C)ccc2O[C@@H](C)CCCCO[C@@H]1CN(C)C(=O)NC1CCCCC1	-1[16.7 µM]	19	x	-1	x	x	x	x	x	x	1	x
Cc1cccc(C)c1OCc1nc2ccccc2[nH]1	x	x	6	x	x	-2	x	x	x	x	x	x
Cc1ccc(C)c(OCc2nc3ccccc3[nH]2)c1	-1	-18	69	66*	-1	46*	1.4	-34	1.6	-12	9	1
O=C(Nc1ccc2c(c1)COC2=O)c1ccc(Cl)c(Cl)c1	-4	-12	52	75*	-14	16	1.3	-32	1	-12	4	1.1
O=C(Nc1ccc(Cl)c(Cl)c1)c1ccncc1	17	-5	37	65*	0	12	1.2	22	1.5	-8	-1	1
O=C(Nc1ccc(Cl)c(Cl)c1)c1ccc(Cl)c(Cl)c1	x	-19	53	u	x	20	x	x	x	x	-1	x

Exported with two lines to a compound: entries from further up
Results follow in this order: miR-122 sensor	Yeast UUG start	MITF act	esBAF inh	A549 tox SP	Wnt act	Ring1 derepress	HepG2 tox SP	Bmi1 derepress	HEK293 cytotox SP	PglD inh	Fgf4 repress
Cc1ccc(C)c(OCc2nc3ccccc3[nH]2)c1
 : -1	-18	69	66*	-1	46*	1.4	-34	1.6	-12	9	1
O=C(Nc1ccc2c(c1)COC2=O)c1ccc(Cl)c(Cl)c1
 : -4	-12	52	75*	-14	16	1.3	-32	1	-12	4	1.1
O=C(Nc1ccc(Cl)c(Cl)c1)c1ccncc1
 : 17	-5	37	65*	0	12	1.2	22	1.5	-8	-1	1
